# The list shows a part of the results, in another mix than the full data. Active and inactive are the calls of the source.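 Rule for the calls: active = inhibition reaching a set limit with compound at 10 µM in the primary screen (cut at about 35% in these data); inactive = the rest.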
# By UniProt entry, the sequences of proteins in these tests, tags left out.
# UniProt P09923, whole entry: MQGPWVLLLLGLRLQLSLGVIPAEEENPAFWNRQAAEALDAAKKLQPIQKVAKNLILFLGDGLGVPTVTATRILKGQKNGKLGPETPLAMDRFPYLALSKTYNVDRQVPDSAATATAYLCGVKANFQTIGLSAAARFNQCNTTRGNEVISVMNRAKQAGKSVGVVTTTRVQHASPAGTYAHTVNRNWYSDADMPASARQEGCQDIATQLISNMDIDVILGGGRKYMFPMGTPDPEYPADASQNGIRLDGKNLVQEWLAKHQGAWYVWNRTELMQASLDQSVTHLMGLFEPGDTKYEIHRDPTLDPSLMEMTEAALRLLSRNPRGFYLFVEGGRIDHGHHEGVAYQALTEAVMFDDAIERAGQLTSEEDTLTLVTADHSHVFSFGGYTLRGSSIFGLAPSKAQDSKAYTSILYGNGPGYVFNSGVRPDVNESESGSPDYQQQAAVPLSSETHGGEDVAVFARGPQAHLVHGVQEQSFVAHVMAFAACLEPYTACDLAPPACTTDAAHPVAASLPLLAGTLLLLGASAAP
# Molecular target: Intestinal-type alkaline phosphatase (Homo sapiens) (UniProt P09923)
# Assay: blockers of intestinal alkaline phosphatase activity – biochemical, luminescence, uHTS, primary screen (AID 2544);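 note: plate controls were DMSO wells with enzyme for no effect and no-enzyme buffer wells for full effect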
# Conditions: purified IAP, CDP-Star luminescence, 30 min; at 10 µM; hits give high values
row,SMILES,inhibition
1,CCN(CC)CCCOC(=O)C(O)(c1ccccc1)C1CCCCC1 (stereo unspecified),inactive: -0.4%
2,O=[N+]([O-])c1cc([N+](=O)[O-])c(OC2CCCCC2O)c([N+](=O)[O-])c1 (stereo unspecified),inactive: 0.1%
3,CCCCCOc1ccc(NP(C)(=O)Oc2ccc(Cl)cc2Cl)cc1 (stereo unspecified),inactive: -17.5%
4,CP(=O)(Nc1ccccc1)Oc1ccc(F)cc1 (stereo unspecified),inactive: 2.6%
5,Cc1cc(C)cc(OP(C)(=O)Nc2cccc(C(F)(F)F)c2)c1 (stereo unspecified),inactive: 5.3%
6,COc1ccc(OP(C)(=O)Nc2ccccc2Br)cc1 (stereo unspecified),inactive: 0.8%
7,COc1ccccc1OP(C)(=O)Nc1ccc(C)c(C)c1 (stereo unspecified),inactive: -0.2%
8,Cc1nc2ccc3ccccc3c2o1.O=[N+]([O-])c1cc([N+](=O)[O-])c(O)c([N+](=O)[O-])c1,inactive: -3.1%
9,CP(=O)(Nc1ccc(Cl)cc1Cl)Oc1ccccc1 (stereo unspecified),inactive: -0.2%
10,CP(=O)(OCCOc1ccccc1)OCCOc1ccccc1,inactive: 10.9%
11,COc1ccccc1OP(C)(=O)Nc1ccc(Br)cc1 (stereo unspecified),inactive: -5.5%
12,CN(C)CCOC(=O)C(O)(c1ccccc1)C1CCCC1 (stereo unspecified),inactive: -22.2%
13,COc1ccc(OP(C)(=O)Nc2ccccn2)cc1 (stereo unspecified),inactive: 14.7%
14,Cc1c(NP(C)(=O)Oc2ccc(C(C)C)cc2)c(=O)n(-c2ccccc2)n1C (stereo unspecified),inactive: -6%
15,O=[N+]([O-])c1cc([N+](=O)[O-])c(Nc2ccccn2)c([N+](=O)[O-])c1,inactive: 29.9%
16,CCc1ccc(OP(C)(=O)O)cc1,inactive: -4.8%

row,SMILES,inhibition
1,CP(=O)(Nc1ccccn1)Oc1ccccc1 (stereo unspecified),inactive: -2%
2,COc1ccccc1OP(C)(=O)Nc1ccc(C)cc1C (stereo unspecified),inactive: -8.8%
3,CCN(CC)CC(O)COC(=O)C(O)(c1ccccc1)C1CCCCC1 (stereo unspecified),inactive: 17.1%
4,COc1ccc(OP(C)(=O)Nc2ccc(Br)cc2)cc1 (stereo unspecified),inactive: -114%
5,CP(=O)(Oc1ccccc1)N1CCOC1=O (stereo unspecified),inactive: -5%
6,CCc1ccc(OP(C)(=O)Nc2cccnc2)cc1 (stereo unspecified),inactive: -2%
7,COc1ccccc1OP(C)(=O)Nc1c(C)n(C)n(-c2ccccc2)c1=O (stereo unspecified),inactive: 2.6%
8,O=C(OCCCN1CCCC1)C(O)(c1ccccc1)C1CCCCC1 (stereo unspecified),inactive: 5.9%
9,CP(=O)(Nc1ccc(Cl)cc1)Oc1ccc(F)cc1 (stereo unspecified),inactive: 12.9%
10,COc1ccccc1OP(C)(=O)Nc1ccccc1Br (stereo unspecified),inactive: 4.2%
11,CC(C)(C)c1ccc(OP(C)(=O)O)cc1,inactive: 13.3%
12,CN(C)C(=O)c1c([N+](=O)[O-])cc([N+](=O)[O-])cc1[N+](=O)[O-],inactive: -2.5%
13,Nc1ccc2c(ccc3cccnc32)n1.O=[N+]([O-])c1cc([N+](=O)[O-])c(O)c([N+](=O)[O-])c1,inactive: 12.9%
14,CP(=O)(OC12CC3CC(CC(C3)C1)C2)OC12CC3CC(CC(C3)C1)C2,inactive: -15.5%
15,CCOC(=O)c1ccc(NP(C)(=O)Oc2ccc(Cl)cc2)cc1 (stereo unspecified),inactive: 0.2%

# Source: PubChem BioAssay AID2544 (Sanford-Burnham Center for Chemical Genomics, 2010)
